The text below walks through data of PubChem BioAssay AID493012 (Sanford-Burnham Center for Chemical Genomics, 2011).

Amino acid sequences for entries named in this document (tags omitted).
UniProt Q9HC16, whole entry: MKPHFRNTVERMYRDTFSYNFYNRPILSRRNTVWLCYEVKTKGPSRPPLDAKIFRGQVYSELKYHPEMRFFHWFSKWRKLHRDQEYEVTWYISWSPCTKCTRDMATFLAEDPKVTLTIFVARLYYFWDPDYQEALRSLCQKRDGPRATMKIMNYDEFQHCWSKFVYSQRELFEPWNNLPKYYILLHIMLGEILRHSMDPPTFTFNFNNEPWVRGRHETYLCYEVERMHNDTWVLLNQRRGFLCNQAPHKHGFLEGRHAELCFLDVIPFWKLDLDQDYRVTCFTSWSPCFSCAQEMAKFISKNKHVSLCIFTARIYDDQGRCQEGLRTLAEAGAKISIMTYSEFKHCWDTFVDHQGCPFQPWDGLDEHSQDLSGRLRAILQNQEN

Each structure is given as a SMILES string. Only a part is listed here, and it is no random draw. Active and inactive are the calls of the source.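 Rule for the calls: active = inhibition of at least 40% at 20 µM, with no more than 30% in the related APOBEC3A deaminase screen; inactive = the rest.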

This assay concerns the target DNA dC->dU-editing enzyme APOBEC-3G (Homo sapiens) (UniProt Q9HC16). Nature of the assay: APOBEC3G DNA deaminase inhibitors, primary screen, biochemical, fluorescence, single-stranded DNA substrate, uHTS (AID 493012).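 Note: plate controls were DMSO wells with A3G for no effect and wells lacking A3G enzyme for full effect.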 The conditions noted are these: recombinant A3G, ssDNA deamination FAM/TAMRA fluorescence; at 20 µM; stronger effect = higher value.
Regarding `O=C(NCC1(N2CCOCC2)CCCCC1)c1cc(F)c(F)cc1Cl`, the inhibition was inactive: -3.23%.
To `COc1cc(OC)c(C(=O)NCC2(N(C)C)CCCCC2)cc1OC` belongs inactive: -8.74%; to `CN(C)c1cccc(C(=O)NCC2(N3CCCCC3)CCCCC2)c1`, inactive: 0.447%; to `COc1ccc(CN(CCCl)CCCl)cc1Cl`, inactive: -6.78%.
To `CC(C)c1ccc(NC2CCN(C(=O)OC(C)(C)C)CC2)cc1` belongs inactive: -10.6%; to `CN1CCC(Nc2cccc(F)c2)CC1`, inactive: -4.48%.
To `O=C(NCC1(N2CCCCC2)CCCCC1)c1cncc(Br)c1` belongs inactive: 1.12%; to `O=C(NCC1(N2CCCCC2)CCCCC1)c1cccc([N+](=O)[O-])c1`, inactive: -5.24%.
As to `CSc1ccc(C(=O)NCC2(N3CCOCC3)CCCCC2)cc1`, the inhibition was inactive: -5.46%.
To `N#CC1(Nc2ccccc2)CCN(CCc2ccccc2)CC1` belongs inactive: -1.77%; to `CCN1CCC(Nc2ccc(Cl)cc2)CC1`, inactive: -6.15%; to `O=C(NCC1(N2CCCCC2)CCCCC1)c1ccc(OC(F)F)cc1`, inactive: -8.69%.
Take `COc1ccc(NC2CCN(C(=O)OC(C)(C)C)CC2)cc1`: the inhibition was inactive: -2.86%.
`CC(C)c1ccc(C(=O)NCC2(N3CCOCC3)CCCCC2)cc1`: the inhibition is inactive: 7.28%.
Take `CN1CCN(CCOC(=O)C(O)(c2ccccc2)c2ccccc2)CC1`: the inhibition is inactive: -6.09%.
To `O=C(NCC1(N2CCOCC2)CCCCC1)c1cc(=O)[nH]c2ccccc12` belongs inactive: -9.34%; to `COc1cc(C(=O)NCC2(N3CCCCC3)CCCCC2)ccc1OC(F)F`, inactive: 0.265%.
For `O=C(NCC1(N2CCCCC2)CCCCC1)c1cccc(C(F)(F)F)c1` the value was inactive: -7.71%; for `CCOC(=O)N1CCC(Nc2ccc(F)cc2)CC1`, inactive: 1.49%; for `COc1ccc(NC2CCN(CCc3ccccc3)CC2)c(OC)c1`, inactive: -2.28%.
To `CCCCOc1ccc(C(=O)NCC2(N3CCOCC3)CCCCC2)cc1` belongs inactive: 6.46%; to `O=C(NCC1(N2CCCCC2)CCCCC1)c1ccc(F)cc1`, inactive: -3.2%; to `CCOc1ccc(C)cc1CN(CCCl)CCCl`, inactive: -7.66%.
Take `Cc1ccc(OCC(C)C)c(CN(CCCl)CCCl)c1`: the inhibition was inactive: -5.71%.
For `CCOC(=O)N1CCC(Nc2cccc(C)c2)CC1` the value was inactive: -5.2%.
To `CSc1ccccc1C(=O)NCC1(N2CCCCC2)CCCCC1` belongs inactive: -4.73%.
To `O=C(NCC1(N2CCCCC2)CCCCC1)c1cccs1` belongs inactive: -8.08%; to `O=C(NCC1(N2CCCCC2)CCCCC1)c1ccc(=O)[nH]c1`, inactive: -2.41%.
For `COc1ccc(C(=O)NCC2(N3CCCCC3)CCCCC2)c(OC)c1OC`, the inhibition was inactive: -6.02%.
In the case of `CC(C)(C)OC(=O)N1CCC(N(C(=O)c2ccccc2)c2ccc(F)cc2)CC1`, the inhibition was inactive: -8.8%.
For `COc1ccc(C(=O)NCC2(N3CCCCC3)CCCCC2)cc1` the value was inactive: -3.94%; for `CCOC(=O)N1CCC(Nc2ccc(OC)cc2)CC1`, inactive: -11.4%; for `COc1ccc(Cl)cc1C(=O)NCC1(N2CCOCC2)CCCCC1`, inactive: -2.25%.
For `O=C(NCC1(N2CCCCC2)CCCCC1)c1ccc(Cl)s1` the value was inactive: -3.85%; for `N#CC1(Nc2ccccc2)CCN(Cc2ccccc2)CC1`, inactive: -7.66%.
In the case of `O=C(OC1CN2CCC1CC2)C1c2ccccc2Oc2ccccc21` (configuration not stated), the inhibition was inactive: -8.53%.
To `O=C(NCC1(N2CCOCC2)CCCCC1)c1cc2ccccc2o1` belongs inactive: -5.17%; to `Cc1cc(C)cc(N(C(=O)c2ccccc2)C2CCN(C(=O)OC(C)(C)C)CC2)c1`, inactive: -0.949%; to `O=C(NCC1(N2CCCCC2)CCCCC1)c1ccc(Cl)nc1`, inactive: 6.46%.
For `CCCOc1ccc(C(=O)NCC2(N(C)C)CCCCC2)cc1` the value was inactive: -0.045%; for `O=C(O)C1(Nc2ccccc2)CCN(Cc2ccccc2)CC1`, inactive: -7.19%; for `CC(C)(C)OC(=O)N1CCC(Nc2ccccc2)CC1`, inactive: -7.17%.
To `CN1CCC(Nc2ccc(F)c(Cl)c2)CC1` belongs inactive: -1.6%; to `CCOc1ncccc1C(=O)NCC1(N2CCOCC2)CCCCC1`, inactive: -0.965%.
As to `CCCOc1ccc(C)cc1CN(CCCl)CCCl`, the inhibition is inactive: -5.41%.
On to `CN1CCC(Nc2ccc(Cl)cc2)CC1`, for which the inhibition is inactive: -7.28%.
To `CCC(CO)(C(=O)OC1CN2CCC1CC2)c1ccccc1` (configuration not stated) belongs inactive: 1.78%; to `COc1cccc(C(=O)N(c2cc(C)cc(C)c2)C2CCN(C(=O)OC(C)(C)C)CC2)c1`, inactive: -1.04%.
To `COc1cc(OC)cc(C(=O)NCC2(N3CCOCC3)CCCCC2)c1` belongs inactive: -7.74%.
For `Fc1ccccc1NC1CCN(Cc2ccccc2)CC1` the value was inactive: -4.67%; for `Cc1ccc(C(=O)NCC2(N3CCCCC3)CCCCC2)o1`, inactive: -2.31%.
`COc1cc(OC)cc(C(=O)NCC2(N3CCCCC3)CCCCC2)c1`: the inhibition was inactive: 2.08%.
To `CN(C)c1ccc(C(=O)NCC2(N3CCCCC3)CCCCC2)cc1` belongs inactive: -5.97%; to `O=C(NCC1(N2CCCCC2)CCCCC1)c1ccco1`, inactive: -8.06%.
For the compound `CCN1CCC(Nc2cccc(F)c2)CC1`, the inhibition was inactive: -2.63%.
Take `CC(C)(C)OC(=O)N1CCC(N(C(=O)c2ccccc2)c2ccc(Cl)cc2)CC1`: the inhibition is inactive: -8.16%.
To `N#Cc1ccc(C(=O)NCC2(N3CCCCC3)CCCCC2)cc1` belongs inactive: -1.69%.
For `CCCN1CCC(Nc2cc(OC)cc(OC)c2)CC1` the value was inactive: -0.318%.
For `c1ccc(CN2CCC(Nc3ccccc3)CC2)cc1` the value was inactive: -2.06%; for `CN(C)C1(CNC(=O)c2cccc(C#N)c2)CCCCC1`, inactive: -1.96%.
Turning to `COc1ccc(C(=O)NCC2(N3CCOCC3)CCCCC2)cc1OC`, the inhibition was inactive: -5.85%.
For `O=C(NCC1(N2CCOCC2)CCCCC1)c1cc(Br)ccc1Cl` the value was inactive: -8.09%; for `COc1cc(C(=O)NCC2(N3CCOCC3)CCCCC2)cc(OC)c1C`, inactive: -1.16%.
For `CCc1cc(C(=O)NCC2(N3CCCCC3)CCCCC2)sc1C` the value was inactive: -9.42%; for `O=C(OC1CN2CCC1CC2)C1c2ccccc2C=Cc2ccccc21` (configuration not stated), inactive: -3.95%; for `N/C(=N\O)c1c(N)no[n+]1[O-]`, inactive: 12.8%.
For `CCOC(=O)N1CCC(Nc2ccc(C)cc2)CC1` the value was inactive: -8.39%.

The term inhibition denotes the drop in the measured response relative to a control, in per cent.
